# Data taken from patent US20230137216A1, “Stabilization of Pharmaceutical Compositions Comprising Polysorbate” (LEK Pharmaceuticals d.d., priority 2020, published 2023).
# Experiment: Accelerated stability testing of PS80 HX2 (polysorbate content by mixed-mode chromatography with CAD)
# Details: 0.02% w/v PS80 HX2, 20 mM histidine buffer salt, pH 6.5, 50° C., 1 month
# Procedure: PS20 or PS80 obtained from different manufacturers (see Table 1) was dissolved in 20 mM aqueous buffer at pH 5.5 or 6.5 in a glass vial to a final concentration of 0.02% (w/v) polysorbate. The buffer salts used in the histidine buffers investigated were histidine chloride (HisCl) and various further histidine buffer salts (see below, all obtained from Sigma-Aldrich (now Merck KgaA)).
# Degradation mechanisms of the polysorbates were explored using 20 mM imidazole chloride and 20 mM alanine chloride buffer salts. Also, HisCl buffer salt comprising solutions were prepared with the additional excipients of mannitol or trehalose (both Sigma-Aldrich) to determine the influence of sugars and their derivatives on polysorbate degradation. Finally, two different mAbs were used as the active agent that each contained 10 mg/mL mAb, 0.02% PS80 HX2 and 20 mM HisCl buffer salt at pH 6.5. The therapeutic protein solutions were provided by Lek d.d. (Mengeš, Slovenia). In all cases, the starting point samples were collected immediately and stored at −80° C. The vials were then placed into a 50° C. incubator for up to 2 months, with samples collected at 1 month and further samples in some cases at 2 months. All of these samples were stored at −80° C. for subsequent analysis.
# The polysorbate contents were analysed and quantified using a method based on mixed-mode chromatography, as mixed anion exchange and reversed phase, combined with a charged aerosol detector (CAD). The external standard approach was used for quantification of the surfactants. Chromatographic analysis was carried out using the method of Hewitt et al. (Hewitt, D. et al. J. Chromatogr. A 1218, 2138-2145 (2011).
# Analytes were separated using a Waters Oasis MAX column (30 μm particle size, 2.1 mm×20 mm), column temperature 30° C., flow rate 1 ml/min and a total run time of 10 min. The injection volume was 10 μL. Initial conditions were set at 90% solvent A (2% formic acid in purified water) and 10% solvent B (2% formic acid in isopropanol). Solvent B was increased to 20% in the first minute and held for 2.4 min. […]
row,Substance,degradation of polysorbate 80 HX2
1,histidine adipate,major to almost complete degradation
2,histidine glutamate,major to almost complete degradation
3,histidine aspartate,major to almost complete degradation
